Sequences of proteins named here, by UniProt entry; tags and fusion partners are left off. A change or cut given only in a name is not applied to a line headed by its entry.
UniProt Q64326: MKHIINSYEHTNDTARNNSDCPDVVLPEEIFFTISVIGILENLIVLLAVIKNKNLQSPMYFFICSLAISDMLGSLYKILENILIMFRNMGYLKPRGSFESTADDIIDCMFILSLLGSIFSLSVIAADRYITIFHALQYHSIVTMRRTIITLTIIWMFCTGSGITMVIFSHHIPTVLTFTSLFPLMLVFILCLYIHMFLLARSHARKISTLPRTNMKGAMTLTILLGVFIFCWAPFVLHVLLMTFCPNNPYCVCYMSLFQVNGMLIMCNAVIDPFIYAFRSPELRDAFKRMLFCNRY
UniProt P41968: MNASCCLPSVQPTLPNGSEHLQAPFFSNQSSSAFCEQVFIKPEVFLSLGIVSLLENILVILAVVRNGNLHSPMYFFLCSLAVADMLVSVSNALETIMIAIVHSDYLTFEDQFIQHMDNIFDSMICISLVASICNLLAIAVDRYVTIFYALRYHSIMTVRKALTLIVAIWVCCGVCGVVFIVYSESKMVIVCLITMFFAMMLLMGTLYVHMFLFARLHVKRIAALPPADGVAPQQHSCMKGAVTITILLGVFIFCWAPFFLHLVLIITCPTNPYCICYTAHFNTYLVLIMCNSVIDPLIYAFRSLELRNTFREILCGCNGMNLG
UniProt P01189: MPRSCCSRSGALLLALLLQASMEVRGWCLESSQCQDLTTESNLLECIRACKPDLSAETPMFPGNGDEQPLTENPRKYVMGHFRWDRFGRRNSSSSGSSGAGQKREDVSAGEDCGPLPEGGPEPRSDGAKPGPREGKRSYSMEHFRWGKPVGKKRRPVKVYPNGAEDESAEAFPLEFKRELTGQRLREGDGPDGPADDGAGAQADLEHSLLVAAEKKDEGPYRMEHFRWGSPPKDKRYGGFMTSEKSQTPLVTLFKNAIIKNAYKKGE

In US20020004485A1 (University of California, published 2002):

Key:
[1] = target: ACTH (MCR-2) receptor endogenous to murine Y1 adrenocortical cells (murine, UniProt Q64326 1-296); assay: cell-based or functional assay
[2] = target: human MCR-3 receptor (human, UniProt P41968 1-323); assay: cell-based or functional assay

EC50 of ACTH-(1-24) alone, cAMP in Y1 cells [1] [nM]	EC50 of α-MSH alone, cAMP in HEK cells expressing MCR-3 [2] [nM]	Binder
1.8	–	SYSMEHFRWGKPVGKKRRPVKVYP (ligand, UniProt P01189 138-161, looked up) [ACTH-(1-24)]
–	4.2	SYSMEHFRWGKPV (ligand, UniProt P01189 138-150, looked up) [α-melanocyte stimulating hormone]
